Columns and labels:
μ opiate receptor = μ opiate receptor (Homo sapiens, UniProt P35372); test: Opiate receptor binding affinity, μ; conditions: read-out: Ki (nM) μ
κ opiate receptor = κ opiate receptor (Homo sapiens, UniProt P41145); test: Opiate receptor binding affinity, κ; conditions: read-out: Ki (nM) κ

| SMILES | Ki (μ opiate receptor) [nM] | Ki (κ opiate receptor) [nM] |
| --- | --- | --- |
| O=C1Cc2ccccc2N1C1CCN(C2CCc3ccccc3C2)CC1 (stereo not shown) | 38.9 | 55.1 |
| CC(c1ccc(C2CCCCC2)cc1)N1CCC(N2C(=O)Cc3ccccc32)CC1 (stereo not shown) | 210 | 3870 |
| O=C1Cc2ccccc2N1C1CCN(C2CCCC3CCCCC32)CC1 (stereo not shown) | 36.7 | 202 |
| O=C1Cc2ccccc2N1C1CCN(Cc2ccccc2)CC1 | 91.1 | 84.5 |
| O=C1Cc2ccccc2N1C1CCN(C(C2CCCCC2)C2CCCCC2)CC1 | 227 | 343 |

— US20050228023A1, “Agonist and antagonist ligands of the nociceptin receptor” (published 2005)
